Measurements as given in ChEMBL document CHEMBL1140088, “N9-substituted 2,4-diaminoquinazolines: synthesis and biological evaluation of lipophilic inhibitors of pneumocystis carinii and toxoplasma gondii dihydrofolate reductase” (J Med Chem, 2008).

Target: T1, Dihydrofolate reductase (Mycobacterium avium, UniProt O30463)
T1 sequence (O30463 whole entry): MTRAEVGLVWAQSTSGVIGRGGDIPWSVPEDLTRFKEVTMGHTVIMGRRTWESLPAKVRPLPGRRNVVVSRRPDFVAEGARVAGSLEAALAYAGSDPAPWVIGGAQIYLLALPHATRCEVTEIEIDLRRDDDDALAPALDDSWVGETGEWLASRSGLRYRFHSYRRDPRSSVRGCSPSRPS
Experiment: Inhibition of Mycobacterium avium dihydrofolate reductase

CCN(Cc1ccccc1)c1ccc2nc(N)nc(N)c2c1
IC50: 1.1 nM
